Source: patent publication US9012365B2, “Compatibility agents for herbicidal formulations comprising 2,4-(Dichlorophenoxy) acetic acid salts” (priority 2006, dated 2015)

Assay: Appearance of 10 g solution of (2.5 wt % ai 2,4-D DMA + tested chemical) after adding 40% AMS
Format: physicochemical
Settings: summary statement of the description

Sodium xylene sulfonate
Suitability for increasing the solubility of 2,4-D non-amine salt (in words): ineffective
